Results as given in US20150313825A1, “METHODS AND COMPOSITIONS FOR LOCALLY INCREASING BODY FAT” (TOPOKINE THERAPEUTICS, INC., priority 2012, published 2015).

Assay: Plasma pharmacokinetics after 42 days of percutaneous treatment, LC/MS-MS (Example 4)
Details: fold lower than for oral (systemic) therapy
Procedure: A prospective controlled trial was performed in 4 Gottingen minipigs (2 males, 2 females). Hair on the back was clipped. […] An equivalent Vehicle Treatment Area was marked on the left side of the animal, such that the two treatment areas were anatomically equivalent. […] After 42 days of treatment, plasma pharmacokinetics (PK) was assessed on all animals by Liquid Chromatography/Tandem Mass Spectrometry. Necropsy was done and samples of skin, subcutaneous fat, and muscle were collected en bloc from each treatment area in a controlled fashion. […] Table 5 presents the thicknesses of subcutaneous fat on each of six treated and control (vehicle) locations, by animal. […] Table 6 compares plasma PK following percutaneous administration (present study) with plasma PK following oral administration in humans.

For `CN(CCOc1ccc(CC2SC(=O)NC2=O)cc1)c1ccccn1` (stereo not shown) [Rosiglitazone], the “Percutaneous:Oral Ratio of plasma exposure (AUC0-24)” value was ~1300.
